The target in the assay is T1, human renal renin (Homo sapiens, UniProt P00797).
T1 construct: human renal renin, free from acid proteolytic activity; from tissue; host or cells: human kidney (from the word 'renal')
Briefly: inhibition of human renal renin in vitro, angiotensin I formed measured by radioimmunoassay. It is filed as biochemical. Particulars: pH 6. As for the experimental part: At the end of the incubation, the amount of angiotensin I formed is measured by radioimmunoassay and the molor concentration required to cause 50% inhibition, expressed as the IC50, is calculated.

The chains behind the UniProt entries cited, without tags or fusion partners. Residues count along the entry.
UniProt P00797, 67-406: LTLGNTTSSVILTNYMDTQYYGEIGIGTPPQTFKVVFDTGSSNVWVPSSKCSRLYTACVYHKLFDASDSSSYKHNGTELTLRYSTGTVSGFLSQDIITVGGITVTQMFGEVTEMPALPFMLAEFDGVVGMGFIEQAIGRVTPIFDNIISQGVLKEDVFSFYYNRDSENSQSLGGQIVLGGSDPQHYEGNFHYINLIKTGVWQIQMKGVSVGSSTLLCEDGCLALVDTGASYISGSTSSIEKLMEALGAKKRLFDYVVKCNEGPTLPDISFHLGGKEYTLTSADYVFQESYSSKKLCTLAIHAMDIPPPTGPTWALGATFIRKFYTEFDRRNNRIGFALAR

As for “Boc-Phe-Ala amide of 4-amino-1-cyclohexyl-3-hydroxy-6-methyl-1-(4-methylvaleryl)aminoheptane [Example 44]”, the IC50 (commonly the concentration needed to halve the response being measured) is 2000 nM.

Values taken from US4857507A, “Angiotensinogen analogs” (Abbott Laboratories, priority 1987, dated 1989).
